In ChEMBL document CHEMBL2218924, “A broad activity screen in support of a chemogenomic map for kinase signalling research and drug discovery” (Biochem J, 2013):
For some assays here: This list holds what a sample rich in strong results left over. The entries are a selection whose mix differs from that of the whole data set.

Chains of the proteins cited; added tags and fusions are not shown. Lines headed by an entry give the natural chain unless they say otherwise; changes in a name come on top.
UniProt P00519, whole entry: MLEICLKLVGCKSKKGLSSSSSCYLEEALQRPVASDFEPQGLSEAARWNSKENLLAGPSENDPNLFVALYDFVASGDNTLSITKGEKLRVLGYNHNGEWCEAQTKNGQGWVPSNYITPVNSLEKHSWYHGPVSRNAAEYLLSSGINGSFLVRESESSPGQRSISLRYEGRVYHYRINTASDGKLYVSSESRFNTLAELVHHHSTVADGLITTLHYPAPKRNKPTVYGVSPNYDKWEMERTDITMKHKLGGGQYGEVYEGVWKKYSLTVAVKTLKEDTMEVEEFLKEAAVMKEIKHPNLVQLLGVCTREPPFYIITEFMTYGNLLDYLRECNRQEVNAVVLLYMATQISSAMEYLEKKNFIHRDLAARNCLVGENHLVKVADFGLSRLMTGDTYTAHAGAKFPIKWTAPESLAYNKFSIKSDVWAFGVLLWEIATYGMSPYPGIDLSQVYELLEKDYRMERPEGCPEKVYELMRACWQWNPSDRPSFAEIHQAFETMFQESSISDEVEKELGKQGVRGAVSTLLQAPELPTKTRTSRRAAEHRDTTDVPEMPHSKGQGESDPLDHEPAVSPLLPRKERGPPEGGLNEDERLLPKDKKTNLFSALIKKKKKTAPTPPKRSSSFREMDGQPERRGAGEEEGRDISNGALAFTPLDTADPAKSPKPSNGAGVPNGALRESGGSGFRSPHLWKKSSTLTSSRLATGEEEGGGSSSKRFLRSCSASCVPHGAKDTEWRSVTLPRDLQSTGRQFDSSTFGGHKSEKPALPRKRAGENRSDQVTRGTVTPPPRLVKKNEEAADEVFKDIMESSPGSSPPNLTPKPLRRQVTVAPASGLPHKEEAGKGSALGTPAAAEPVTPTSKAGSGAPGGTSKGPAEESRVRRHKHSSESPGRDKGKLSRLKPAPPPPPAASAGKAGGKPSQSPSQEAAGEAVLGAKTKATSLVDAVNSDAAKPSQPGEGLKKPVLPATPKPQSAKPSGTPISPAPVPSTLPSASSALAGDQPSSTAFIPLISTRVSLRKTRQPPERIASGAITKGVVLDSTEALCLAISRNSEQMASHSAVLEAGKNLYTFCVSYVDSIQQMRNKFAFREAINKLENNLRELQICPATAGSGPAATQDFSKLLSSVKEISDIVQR
UniProt P22607, whole entry, looked up: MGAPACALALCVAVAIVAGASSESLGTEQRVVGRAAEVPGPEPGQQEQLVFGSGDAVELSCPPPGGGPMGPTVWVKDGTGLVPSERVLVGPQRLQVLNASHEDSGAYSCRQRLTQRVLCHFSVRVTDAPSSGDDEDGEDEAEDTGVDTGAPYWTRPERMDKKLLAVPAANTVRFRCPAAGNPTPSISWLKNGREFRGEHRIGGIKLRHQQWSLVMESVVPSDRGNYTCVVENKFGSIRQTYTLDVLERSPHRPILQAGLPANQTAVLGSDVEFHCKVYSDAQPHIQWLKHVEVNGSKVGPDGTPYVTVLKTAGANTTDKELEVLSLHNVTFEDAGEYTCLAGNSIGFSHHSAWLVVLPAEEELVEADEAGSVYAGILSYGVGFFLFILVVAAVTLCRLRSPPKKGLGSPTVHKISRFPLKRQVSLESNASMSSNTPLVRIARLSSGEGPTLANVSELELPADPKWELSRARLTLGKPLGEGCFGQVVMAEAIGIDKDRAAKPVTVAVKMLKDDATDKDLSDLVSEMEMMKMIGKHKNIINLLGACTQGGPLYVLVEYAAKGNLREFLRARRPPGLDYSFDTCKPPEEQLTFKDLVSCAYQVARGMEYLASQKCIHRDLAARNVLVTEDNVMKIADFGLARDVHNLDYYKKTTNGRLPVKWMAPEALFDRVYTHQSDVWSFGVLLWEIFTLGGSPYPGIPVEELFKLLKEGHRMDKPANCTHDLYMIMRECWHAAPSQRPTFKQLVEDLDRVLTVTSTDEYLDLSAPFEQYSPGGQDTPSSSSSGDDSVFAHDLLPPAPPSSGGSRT
UniProt P22455, whole entry, looked up: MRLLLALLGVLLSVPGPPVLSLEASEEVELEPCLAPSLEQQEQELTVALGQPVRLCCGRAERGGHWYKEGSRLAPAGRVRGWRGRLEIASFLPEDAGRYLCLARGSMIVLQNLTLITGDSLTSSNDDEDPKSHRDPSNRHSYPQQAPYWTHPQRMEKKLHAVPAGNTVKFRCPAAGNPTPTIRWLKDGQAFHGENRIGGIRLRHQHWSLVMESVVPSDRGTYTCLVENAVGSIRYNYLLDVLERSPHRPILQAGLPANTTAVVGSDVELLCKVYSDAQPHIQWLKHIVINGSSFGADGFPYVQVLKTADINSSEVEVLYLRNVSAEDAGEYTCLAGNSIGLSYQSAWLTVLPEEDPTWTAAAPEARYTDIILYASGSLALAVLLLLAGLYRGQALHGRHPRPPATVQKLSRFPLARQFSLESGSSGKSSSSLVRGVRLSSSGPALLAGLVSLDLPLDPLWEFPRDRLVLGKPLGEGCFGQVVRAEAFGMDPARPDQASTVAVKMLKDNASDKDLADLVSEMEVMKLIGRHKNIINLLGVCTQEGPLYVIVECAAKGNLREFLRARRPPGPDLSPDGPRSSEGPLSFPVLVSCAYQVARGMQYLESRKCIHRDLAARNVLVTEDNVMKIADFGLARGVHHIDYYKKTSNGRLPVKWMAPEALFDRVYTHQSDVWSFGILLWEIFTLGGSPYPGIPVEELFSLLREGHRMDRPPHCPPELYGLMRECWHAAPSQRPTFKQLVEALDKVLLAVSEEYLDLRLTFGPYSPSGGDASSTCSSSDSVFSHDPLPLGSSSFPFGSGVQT
UniProt P07332: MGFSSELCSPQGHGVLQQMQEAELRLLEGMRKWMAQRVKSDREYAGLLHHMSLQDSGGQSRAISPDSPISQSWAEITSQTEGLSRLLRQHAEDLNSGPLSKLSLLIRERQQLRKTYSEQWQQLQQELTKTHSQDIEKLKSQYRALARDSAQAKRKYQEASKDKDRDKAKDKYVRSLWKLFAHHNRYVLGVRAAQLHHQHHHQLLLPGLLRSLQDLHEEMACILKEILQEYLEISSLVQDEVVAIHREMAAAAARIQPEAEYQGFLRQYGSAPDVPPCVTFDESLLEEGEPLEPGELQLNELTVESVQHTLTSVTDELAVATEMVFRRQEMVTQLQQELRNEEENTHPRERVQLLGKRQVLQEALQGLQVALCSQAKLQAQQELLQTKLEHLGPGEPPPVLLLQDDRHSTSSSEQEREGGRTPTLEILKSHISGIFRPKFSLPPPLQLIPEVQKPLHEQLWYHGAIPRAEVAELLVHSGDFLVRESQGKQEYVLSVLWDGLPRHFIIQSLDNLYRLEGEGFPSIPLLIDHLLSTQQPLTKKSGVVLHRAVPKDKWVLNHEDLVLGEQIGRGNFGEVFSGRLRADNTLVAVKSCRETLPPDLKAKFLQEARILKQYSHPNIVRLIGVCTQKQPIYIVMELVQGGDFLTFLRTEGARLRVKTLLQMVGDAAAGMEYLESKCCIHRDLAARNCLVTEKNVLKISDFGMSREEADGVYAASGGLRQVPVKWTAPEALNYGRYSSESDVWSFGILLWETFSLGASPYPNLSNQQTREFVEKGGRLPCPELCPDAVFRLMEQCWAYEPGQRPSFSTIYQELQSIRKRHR
UniProt P05771, whole entry, looked up: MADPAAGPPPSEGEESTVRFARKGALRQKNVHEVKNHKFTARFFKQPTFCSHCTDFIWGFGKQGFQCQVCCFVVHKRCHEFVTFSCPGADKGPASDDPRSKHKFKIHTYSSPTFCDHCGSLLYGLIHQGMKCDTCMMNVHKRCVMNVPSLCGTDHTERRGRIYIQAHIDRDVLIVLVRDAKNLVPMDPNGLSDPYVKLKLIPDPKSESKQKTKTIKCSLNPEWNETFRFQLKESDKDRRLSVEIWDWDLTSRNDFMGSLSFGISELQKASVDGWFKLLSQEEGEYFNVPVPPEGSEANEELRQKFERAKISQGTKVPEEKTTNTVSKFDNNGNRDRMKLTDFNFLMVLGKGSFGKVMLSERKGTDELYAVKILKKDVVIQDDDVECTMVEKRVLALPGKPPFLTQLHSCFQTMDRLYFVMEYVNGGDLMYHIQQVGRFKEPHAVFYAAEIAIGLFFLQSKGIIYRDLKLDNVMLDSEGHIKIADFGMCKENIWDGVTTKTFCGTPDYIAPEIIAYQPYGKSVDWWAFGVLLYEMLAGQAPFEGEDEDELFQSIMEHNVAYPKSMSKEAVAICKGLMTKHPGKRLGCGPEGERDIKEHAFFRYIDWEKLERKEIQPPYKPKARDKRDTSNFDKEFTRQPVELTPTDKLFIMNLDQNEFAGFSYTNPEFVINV
UniProt P34947, whole entry, looked up: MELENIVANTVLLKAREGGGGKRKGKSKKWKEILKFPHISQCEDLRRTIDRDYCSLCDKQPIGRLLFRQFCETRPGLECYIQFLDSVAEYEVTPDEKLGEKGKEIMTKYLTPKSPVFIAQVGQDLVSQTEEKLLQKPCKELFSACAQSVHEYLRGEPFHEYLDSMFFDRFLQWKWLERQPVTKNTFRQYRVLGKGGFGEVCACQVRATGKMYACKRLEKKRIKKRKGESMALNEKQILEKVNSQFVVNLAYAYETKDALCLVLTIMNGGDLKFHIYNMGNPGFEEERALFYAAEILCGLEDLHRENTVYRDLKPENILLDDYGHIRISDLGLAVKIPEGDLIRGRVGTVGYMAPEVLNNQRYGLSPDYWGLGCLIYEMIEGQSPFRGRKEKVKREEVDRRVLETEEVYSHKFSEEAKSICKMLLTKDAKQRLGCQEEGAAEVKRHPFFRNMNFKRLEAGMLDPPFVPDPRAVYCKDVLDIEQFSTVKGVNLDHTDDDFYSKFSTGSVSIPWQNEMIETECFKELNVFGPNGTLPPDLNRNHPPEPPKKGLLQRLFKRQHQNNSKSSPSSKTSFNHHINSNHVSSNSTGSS
UniProt Q86Z02: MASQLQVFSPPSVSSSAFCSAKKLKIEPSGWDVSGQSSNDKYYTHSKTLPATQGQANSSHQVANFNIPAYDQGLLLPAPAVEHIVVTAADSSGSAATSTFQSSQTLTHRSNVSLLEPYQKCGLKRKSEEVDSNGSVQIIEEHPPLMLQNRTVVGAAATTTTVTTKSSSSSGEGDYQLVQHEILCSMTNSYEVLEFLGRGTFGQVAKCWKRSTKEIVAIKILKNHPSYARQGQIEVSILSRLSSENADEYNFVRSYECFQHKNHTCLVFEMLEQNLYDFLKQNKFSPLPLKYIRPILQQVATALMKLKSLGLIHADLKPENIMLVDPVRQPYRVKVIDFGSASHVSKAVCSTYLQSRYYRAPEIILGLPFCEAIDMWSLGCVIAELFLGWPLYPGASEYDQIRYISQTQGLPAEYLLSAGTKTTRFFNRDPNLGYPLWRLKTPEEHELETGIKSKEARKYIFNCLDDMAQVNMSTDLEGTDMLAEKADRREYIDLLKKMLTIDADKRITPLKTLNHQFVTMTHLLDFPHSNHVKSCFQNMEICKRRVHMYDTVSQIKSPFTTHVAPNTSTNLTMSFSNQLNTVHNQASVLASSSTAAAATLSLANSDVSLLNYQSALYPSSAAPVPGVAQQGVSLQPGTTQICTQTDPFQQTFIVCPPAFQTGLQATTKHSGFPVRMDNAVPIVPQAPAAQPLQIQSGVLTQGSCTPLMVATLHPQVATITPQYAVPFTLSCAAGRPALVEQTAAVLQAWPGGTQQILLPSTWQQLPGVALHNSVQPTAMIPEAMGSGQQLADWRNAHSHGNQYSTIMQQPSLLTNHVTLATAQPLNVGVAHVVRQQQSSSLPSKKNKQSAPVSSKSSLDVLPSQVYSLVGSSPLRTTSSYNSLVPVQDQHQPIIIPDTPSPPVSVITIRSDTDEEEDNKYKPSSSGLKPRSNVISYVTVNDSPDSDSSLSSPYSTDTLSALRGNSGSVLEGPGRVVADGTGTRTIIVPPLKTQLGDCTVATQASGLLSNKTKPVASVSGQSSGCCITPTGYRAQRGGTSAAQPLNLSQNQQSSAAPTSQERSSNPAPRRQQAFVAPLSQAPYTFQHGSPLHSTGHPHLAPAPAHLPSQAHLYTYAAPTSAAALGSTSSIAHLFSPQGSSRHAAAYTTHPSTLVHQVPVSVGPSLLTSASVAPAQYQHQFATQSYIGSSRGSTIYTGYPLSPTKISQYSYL
UniProt P11309, whole entry, looked up: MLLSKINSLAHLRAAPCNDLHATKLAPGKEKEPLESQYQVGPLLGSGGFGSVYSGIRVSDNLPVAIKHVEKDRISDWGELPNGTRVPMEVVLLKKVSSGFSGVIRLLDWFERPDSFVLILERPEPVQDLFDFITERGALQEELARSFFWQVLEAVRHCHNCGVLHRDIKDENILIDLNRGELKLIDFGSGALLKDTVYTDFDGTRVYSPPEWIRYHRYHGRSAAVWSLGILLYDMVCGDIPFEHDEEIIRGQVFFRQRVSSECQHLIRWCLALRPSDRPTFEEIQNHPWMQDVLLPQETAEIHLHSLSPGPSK

Legend:
[1] = target: T1, Discoidin domain-containing receptor 2 (Homo sapiens) (UniProt Q16832); conditions: at 10 µM
T1 sequence (whole entry): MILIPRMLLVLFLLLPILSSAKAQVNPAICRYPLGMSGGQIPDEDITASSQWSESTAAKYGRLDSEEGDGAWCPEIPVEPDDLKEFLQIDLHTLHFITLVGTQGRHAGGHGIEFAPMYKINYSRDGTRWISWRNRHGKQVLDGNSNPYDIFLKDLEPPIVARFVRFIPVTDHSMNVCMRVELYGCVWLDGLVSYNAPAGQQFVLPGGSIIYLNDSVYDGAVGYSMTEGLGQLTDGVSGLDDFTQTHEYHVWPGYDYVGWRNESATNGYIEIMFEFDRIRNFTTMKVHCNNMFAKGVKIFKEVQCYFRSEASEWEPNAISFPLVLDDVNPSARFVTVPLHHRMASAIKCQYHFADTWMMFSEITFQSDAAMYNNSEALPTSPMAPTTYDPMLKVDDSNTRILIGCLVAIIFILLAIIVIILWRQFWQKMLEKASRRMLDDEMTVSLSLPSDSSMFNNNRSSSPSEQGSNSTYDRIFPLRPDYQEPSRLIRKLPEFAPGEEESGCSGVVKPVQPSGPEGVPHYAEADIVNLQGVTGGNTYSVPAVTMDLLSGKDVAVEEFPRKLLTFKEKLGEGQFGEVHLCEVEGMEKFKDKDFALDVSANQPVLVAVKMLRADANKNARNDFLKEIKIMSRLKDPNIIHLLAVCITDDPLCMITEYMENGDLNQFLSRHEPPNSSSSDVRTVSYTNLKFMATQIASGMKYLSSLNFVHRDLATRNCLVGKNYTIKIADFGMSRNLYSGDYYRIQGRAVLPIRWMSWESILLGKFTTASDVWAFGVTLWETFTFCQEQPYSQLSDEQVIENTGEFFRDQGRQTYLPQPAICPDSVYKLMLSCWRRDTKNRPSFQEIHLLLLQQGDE

[2] = target: Glycogen synthase kinase-3 alpha (Homo sapiens) (UniProt P49840); conditions: at 1 µM
[3] = target: Serine/threonine-protein kinase PLK3 (Homo sapiens) (UniProt Q9H4B4); conditions: at 10 µM
[4] = target: PAS domain-containing serine/threonine-protein kinase (Homo sapiens) (UniProt Q96RG2); conditions: at 1 µM
[5] = target: Tyrosine-protein kinase ABL1 (Homo sapiens) (UniProt P00519); conditions: at 10 µM
[6] = target: Fibroblast growth factor receptor 3 (Homo sapiens) (UniProt P22607); conditions: at 1 µM
[7] = target: Muscle, skeletal receptor tyrosine-protein kinase (Homo sapiens) (UniProt O15146); conditions: at 1 µM
[8] = target: Fibroblast growth factor receptor 4 (Homo sapiens) (UniProt P22455); conditions: at 1 µM
[9] = target: T2, Serine/threonine-protein kinase D1 (Homo sapiens) (UniProt Q15139); conditions: at 10 µM
T2 sequence (whole entry): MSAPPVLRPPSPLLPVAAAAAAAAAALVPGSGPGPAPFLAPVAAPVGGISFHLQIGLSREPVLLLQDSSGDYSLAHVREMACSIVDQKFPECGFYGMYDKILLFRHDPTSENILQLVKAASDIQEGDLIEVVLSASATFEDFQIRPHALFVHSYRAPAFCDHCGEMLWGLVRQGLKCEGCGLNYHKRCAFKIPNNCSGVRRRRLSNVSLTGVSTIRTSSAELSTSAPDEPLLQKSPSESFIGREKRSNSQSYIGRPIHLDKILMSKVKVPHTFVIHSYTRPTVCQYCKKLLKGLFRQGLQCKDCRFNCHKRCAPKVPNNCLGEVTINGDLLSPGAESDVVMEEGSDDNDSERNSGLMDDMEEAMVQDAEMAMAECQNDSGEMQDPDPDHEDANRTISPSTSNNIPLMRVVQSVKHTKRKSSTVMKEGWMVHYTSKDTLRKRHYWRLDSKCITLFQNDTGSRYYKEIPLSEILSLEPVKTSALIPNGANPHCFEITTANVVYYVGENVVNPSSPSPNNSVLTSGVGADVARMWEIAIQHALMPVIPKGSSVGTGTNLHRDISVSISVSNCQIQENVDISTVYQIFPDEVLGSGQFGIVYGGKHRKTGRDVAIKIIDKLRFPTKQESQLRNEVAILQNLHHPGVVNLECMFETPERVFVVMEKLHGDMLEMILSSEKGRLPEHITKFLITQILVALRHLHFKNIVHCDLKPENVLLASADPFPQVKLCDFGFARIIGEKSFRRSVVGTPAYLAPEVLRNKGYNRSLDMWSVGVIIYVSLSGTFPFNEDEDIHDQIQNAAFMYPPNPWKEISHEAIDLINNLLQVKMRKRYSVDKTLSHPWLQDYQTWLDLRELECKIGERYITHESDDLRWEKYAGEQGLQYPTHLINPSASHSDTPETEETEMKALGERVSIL

[10] = target: T3, MAP kinase-activated protein kinase 5 (Homo sapiens) (UniProt Q8IW41); conditions: at 10 µM
T3 sequence (whole entry): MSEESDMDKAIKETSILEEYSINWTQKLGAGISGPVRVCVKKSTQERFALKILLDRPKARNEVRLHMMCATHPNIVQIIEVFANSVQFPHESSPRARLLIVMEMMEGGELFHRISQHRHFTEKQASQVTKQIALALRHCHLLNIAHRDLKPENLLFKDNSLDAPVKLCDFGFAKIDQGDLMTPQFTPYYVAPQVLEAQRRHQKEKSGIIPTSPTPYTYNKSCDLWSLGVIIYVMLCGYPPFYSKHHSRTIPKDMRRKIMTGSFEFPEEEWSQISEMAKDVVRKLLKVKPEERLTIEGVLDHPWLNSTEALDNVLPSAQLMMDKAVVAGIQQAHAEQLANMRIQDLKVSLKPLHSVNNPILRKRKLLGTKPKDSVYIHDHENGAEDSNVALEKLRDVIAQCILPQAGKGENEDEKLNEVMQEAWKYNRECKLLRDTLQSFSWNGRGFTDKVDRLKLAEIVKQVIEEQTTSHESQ

[11] = target: Tyrosine-protein kinase Fes/Fps (Homo sapiens) (UniProt P07332); conditions: at 10 µM
[12] = target: Tyrosine-protein kinase HCK (Homo sapiens) (UniProt P08631); conditions: at 1 µM
[13] = target: Rho-associated protein kinase 1 (Homo sapiens) (UniProt Q13464); conditions: at 10 µM
[14] = target: Receptor-type tyrosine-protein kinase FLT3 (Homo sapiens) (UniProt P36888); conditions: at 1 µM
[15] = target: Mitogen-activated protein kinase 11 (Homo sapiens) (UniProt Q15759); conditions: at 1 µM
[16] = target: T4, Tyrosine-protein kinase ZAP-70 (Homo sapiens) (UniProt P43403); conditions: at 1 µM
T4 sequence (whole entry): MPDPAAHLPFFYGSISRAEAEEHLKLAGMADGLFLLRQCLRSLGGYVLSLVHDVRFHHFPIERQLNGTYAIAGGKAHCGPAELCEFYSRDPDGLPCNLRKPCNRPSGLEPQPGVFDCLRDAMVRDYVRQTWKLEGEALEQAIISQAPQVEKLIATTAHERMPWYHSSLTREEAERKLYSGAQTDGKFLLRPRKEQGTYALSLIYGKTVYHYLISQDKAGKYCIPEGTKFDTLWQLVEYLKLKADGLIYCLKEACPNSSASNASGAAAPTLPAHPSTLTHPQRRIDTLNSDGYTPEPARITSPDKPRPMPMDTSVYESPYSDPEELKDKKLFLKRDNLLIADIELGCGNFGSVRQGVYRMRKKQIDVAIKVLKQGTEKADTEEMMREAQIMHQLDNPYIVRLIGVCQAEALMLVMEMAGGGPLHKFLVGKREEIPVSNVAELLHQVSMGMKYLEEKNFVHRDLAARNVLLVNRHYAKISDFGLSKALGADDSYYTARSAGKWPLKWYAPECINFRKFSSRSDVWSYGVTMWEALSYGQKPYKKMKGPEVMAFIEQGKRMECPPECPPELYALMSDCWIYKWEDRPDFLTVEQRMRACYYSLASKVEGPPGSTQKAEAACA

[17] = target: Protein kinase C beta type (Homo sapiens) (UniProt P05771); conditions: at 10 µM
[18] = target: Mitogen-activated protein kinase kinase kinase kinase 2 (Homo sapiens) (UniProt Q12851); conditions: at 10 µM
[19] = target: T5, Dual specificity mitogen-activated protein kinase kinase 6 (Homo sapiens) (UniProt P52564); conditions: at 1 µM
T5 sequence (whole entry): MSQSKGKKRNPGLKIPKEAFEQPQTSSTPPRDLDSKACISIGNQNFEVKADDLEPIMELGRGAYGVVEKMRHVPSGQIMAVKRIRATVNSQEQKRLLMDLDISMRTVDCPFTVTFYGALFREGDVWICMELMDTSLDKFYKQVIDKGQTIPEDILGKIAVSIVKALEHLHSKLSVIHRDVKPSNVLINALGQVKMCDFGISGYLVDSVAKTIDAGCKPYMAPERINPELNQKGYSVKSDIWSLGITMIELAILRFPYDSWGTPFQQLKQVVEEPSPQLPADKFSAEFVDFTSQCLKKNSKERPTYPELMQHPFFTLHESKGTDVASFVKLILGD

[20] = target: Proto-oncogene tyrosine-protein kinase Src (Homo sapiens) (UniProt P12931); conditions: at 1 µM
[21] = target: G protein-coupled receptor kinase 5 (Homo sapiens) (UniProt P34947); conditions: at 1 µM
[22] = target: T6, Protein kinase C iota type (Homo sapiens) (UniProt P41743); conditions: at 10 µM
T6 sequence (whole entry): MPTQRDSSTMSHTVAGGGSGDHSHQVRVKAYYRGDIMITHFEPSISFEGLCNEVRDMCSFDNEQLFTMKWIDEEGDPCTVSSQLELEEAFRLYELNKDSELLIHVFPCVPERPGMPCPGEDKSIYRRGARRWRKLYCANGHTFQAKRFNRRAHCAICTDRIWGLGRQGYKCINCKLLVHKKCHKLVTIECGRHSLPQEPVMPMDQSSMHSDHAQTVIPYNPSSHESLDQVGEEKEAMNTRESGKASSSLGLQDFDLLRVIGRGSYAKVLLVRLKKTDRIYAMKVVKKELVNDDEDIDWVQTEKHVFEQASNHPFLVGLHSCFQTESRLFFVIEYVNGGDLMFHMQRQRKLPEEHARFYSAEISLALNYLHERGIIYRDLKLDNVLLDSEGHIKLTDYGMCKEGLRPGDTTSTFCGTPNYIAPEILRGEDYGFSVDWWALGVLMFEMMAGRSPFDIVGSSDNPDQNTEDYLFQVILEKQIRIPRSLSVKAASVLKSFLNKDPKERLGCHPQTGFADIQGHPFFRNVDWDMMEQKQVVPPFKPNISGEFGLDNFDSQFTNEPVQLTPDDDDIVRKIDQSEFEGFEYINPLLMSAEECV

[23] = target: Homeodomain-interacting protein kinase 1 (Homo sapiens) (UniProt Q86Z02); conditions: at 1 µM
[24] = target: T7, Serine/threonine-protein kinase STK11 (Homo sapiens) (UniProt Q15831); conditions: at 10 µM
T7 sequence (whole entry): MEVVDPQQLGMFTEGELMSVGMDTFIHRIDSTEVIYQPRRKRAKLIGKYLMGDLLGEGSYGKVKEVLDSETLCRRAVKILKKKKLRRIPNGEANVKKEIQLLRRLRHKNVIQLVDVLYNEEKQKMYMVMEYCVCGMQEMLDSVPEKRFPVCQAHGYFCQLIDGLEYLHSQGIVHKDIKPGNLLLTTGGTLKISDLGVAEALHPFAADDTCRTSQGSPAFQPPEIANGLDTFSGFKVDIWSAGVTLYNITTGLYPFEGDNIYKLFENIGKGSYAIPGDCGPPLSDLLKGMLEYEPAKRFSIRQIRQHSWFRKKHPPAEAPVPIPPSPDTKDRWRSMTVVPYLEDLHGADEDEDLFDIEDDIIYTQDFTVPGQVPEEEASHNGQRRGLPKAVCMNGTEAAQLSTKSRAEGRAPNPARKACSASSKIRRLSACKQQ

[25] = target: Protein kinase C beta type (Homo sapiens) (UniProt P05771); conditions: at 1 µM
[26] = target: Protein kinase C theta type (Homo sapiens) (UniProt Q04759); conditions: at 1 µM
[27] = target: Serine/threonine-protein kinase pim-1 (Homo sapiens) (UniProt P11309); conditions: at 10 µM

COc1cccc(-c2cc(=O)c3ccccc3o2)c1N
residual activity [1]: 99% | residual activity [2]: 114% | residual activity [3]: 102% | residual activity [4]: 107%

Cc1cc(Nc2nc(-c3ccccc3)nc3ccccc23)n[nH]1
residual activity [5]: 15%

Nc1n[nH]c2nnc(-c3c(-c4ccccc4)nn4ccccc34)cc12
residual activity [6]: 113% | residual activity [7]: 90%

O=c1c2ccccc2[nH]c(=S)n1CCN1CCC(=C(c2ccc(F)cc2)c2ccc(F)cc2)CC1
residual activity [8]: 113%

CC(=O)O/N=C1\C(=C2\C(=O)Nc3cc(Br)ccc32)Nc2ccccc21
residual activity [8]: 103% | residual activity [9]: 81% | residual activity [10]: 94%

CO[C@H]1[C@@H](OC)C[C@H](C)[C@@H](OC)C2=CC(=O)C=C(NC(=O)/C(C)=C/C=C/[C@H](OC)[C@@H](OC(N)=O)/C(C)=C/[C@@H]1C)C2=O
residual activity [11]: 96% | residual activity [12]: 107% | residual activity [13]: 105%

Cc1ccc(S(=O)(=O)/C=C/C#N)cc1
residual activity [14]: 94% | residual activity [15]: 102% | residual activity [16]: 106% | residual activity [17]: 103%

Cc1ccc(NC2=CC(=O)c3sc(C)nc3C2=O)cc1
residual activity [18]: 76% | residual activity [19]: 118% | residual activity [20]: 106%

O=C1Nc2ccccc2/C1=C1/Nc2ccccc2/C1=N\OCCC(O)CO (centres undefined)
residual activity [21]: 79% | residual activity [22]: 111%

Oc1ccc(Nc2nc(-c3ccc(Cl)cc3)cs2)cc1
residual activity [23]: 109% | residual activity [24]: 97% | residual activity [25]: 105%

O=C(Nc1cccc(Nc2cc(Nc3cccc(C(F)(F)F)c3)ncn2)c1)C1CC1
residual activity [26]: 92% | residual activity [27]: 85%

O=C1NC(=O)c2c1c1c3ccccc3[nH]c1c1[nH]c3cc(Br)ccc3c21
residual activity [22]: 103%
